Values quoted from earlier work in patent US20100105761A1, “TREATMENT OF PAIN THROUGH EXPRESSION OF OPIOID RECEPTORS” (priority 2006, published 2010).

How the values were obtained:
[1] = system: MOR-1
[2] = system: μ receptor; conditions: antinociception tests on mice

CN1CC[C@]23c4c5ccc(O)c4O[C@H]2[C@@H](O)C=C[C@H]3[C@H]1C5 [morphine]
response to morphine in MOR-1 knockout mouse [1]: does not respond
cross tolerance with morphine-6b-glucuronide, heroin or 6-acetyl morphine [2]: does not exhibit cross tolerance
